# Reported melting point values for industrial, environmental and drug-like chemicals

Data: OPERA 2.9 data sets, kmansouri/OPERA on GitHub.

The melting point is given in degrees Celsius.

{"smiles": "Cc1nn(-c2ccccc2)c(N2CCCCC2)c1C=O", "mp (°C)": "76"}
{"smiles": "O=C(O)CNC(=S)Nc1ccccc1", "name": "Hydantoic acid, 1-phenyl-alpha-thio-", "mp (°C)": "160"}
{"smiles": "COc1ccccc1OCC1CNC(=O)O1", "stereo": "stereo unspecified", "name": "Mephenoxalone", "mp (°C)": "144"}
{"smiles": "COc1cccc2cc(C=O)oc12", "name": "7-Methoxybenzofuran-2-carbaldehyde", "mp (°C)": "46"}
{"smiles": "CCc1ccc(C)nc1N", "name": "3-Ethyl-6-methylpyridin-2-amine", "mp (°C)": "46.5"}
{"smiles": "O=C(O)c1cn(-c2ccccc2)nc1-c1cccnc1", "name": "1-Phenyl-3-pyridin-3-yl-1H-pyrazole-4-carboxylic acid", "mp (°C)": "239"}
{"smiles": "Cc1nc(=S)c2ccccc2[nH]1", "name": "2-methylquinazoline-4-thiol", "mp (°C)": "212"}
{"smiles": "O=C(O)C12CC3CC(C1)CC(c1ccccc1)(C3)C2", "name": "3-Phenyladamantane-1-carboxylic acid", "mp (°C)": "162"}
{"smiles": "O=C/C=C/[O-].[Na+]", "name": "Malonaldehyde, sodium salt", "mp (°C)": "111.1"}
{"smiles": "Cc1sc(-n2cccc2)c(C(=O)O)c1C", "name": "4,5-Dimethyl-2-(1H-pyrrol-1-yl)thiophene-3-carboxylic acid", "mp (°C)": "157"}
{"smiles": "CN1CCN(CCC(=O)NN)CC1", "name": "3-(4-methylpiperazin-1-yl)propanehydrazide", "mp (°C)": "88"}
{"smiles": "FC(F)(F)C(F)(F)C(F)(F)c1n[nH]c(-c2ccccc2)c1Br", "name": "4-Bromo-3-(heptafluoropropyl)-5-phenyl-1H-pyrazole", "mp (°C)": "123.5"}
{"smiles": "CCN(CC)S(=O)(=O)c1ccc(C(C)=O)cc1", "name": "4-acetyl-N,N-diethylbenzenesulfonamide", "mp (°C)": "82"}
{"smiles": "CN(C)Cc1cccc(N)c1", "name": "3-Amino-N,N-dimethylbenzylamine", "mp (°C)": "41"}
{"smiles": "O=C(O)c1cc(-c2cccs2)nc2ccccc12", "name": "2-Thiophen-2-yl-quinoline-4-carboxylic acid", "mp (°C)": "200"}
{"smiles": "O=C1CCCc2ccccc2N1", "name": "1,3,4,5-tetrahydro-2H-1-benzazepin-2-one", "mp (°C)": "130"}
{"smiles": "O=S(=O)(Cc1nc2ccccc2[nH]1)c1ccccc1", "name": "2-[(Benzenesulfonyl)methyl]-1H-benzimidazole", "mp (°C)": "216"}
{"smiles": "COc1ccc(-c2[nH]c(=N)sc2C)cc1", "name": "4-(4-Methoxyphenyl)-5-methyl-1,3-thiazol-2(3H)-iminato", "mp (°C)": "121"}
{"smiles": "Nc1ccc(N2CCNC(=O)C2)c(Cl)c1", "name": "4-(4-Amino-2-chlorophenyl)piperazin-2-one", "mp (°C)": "148"}
{"smiles": "Clc1nc(CSc2ccccc2)nc2sc3c(c12)CCCC3", "mp (°C)": "56"}
{"smiles": "COc1ccc(OC)c2[nH]c(C(=O)O)cc12", "name": "4,7-Dimethoxy-1H-indole-2-carboxylic acid", "mp (°C)": "202"}
{"smiles": "Cn1nc(CC(=O)O)c2ccccc2c1=O", "name": "(3-Methyl-4-oxo-3,4-dihydrophthalazin-1-yl)acetic acid", "mp (°C)": "190"}
{"smiles": "NC(=O)c1cc(F)ccc1N", "name": "2-Amino-5-fluorobenzamide", "mp (°C)": "144"}
{"smiles": "CC(C)(C)c1ccccc1OCC(=O)O", "name": "(2-tert-butylphenoxy)acetic acid", "mp (°C)": "146"}
{"smiles": "Clc1cc(-c2ccccc2)c2ccccc2n1", "name": "2-chloro-4-phenylquinoline", "mp (°C)": "87"}
{"smiles": "Cc1cc(CN)cc(C)c1O", "name": "4-(Aminomethyl)-2,6-dimethylphenol", "mp (°C)": "100"}
{"smiles": "O=Cc1c(-c2ccccc2)nc2ccccn12", "name": "2-phenylimidazo[1,2-a]pyridine-3-carbaldehyde", "mp (°C)": "145"}

The 3 lowest values of mp among the entries above:

{"smiles": "CN(C)Cc1cccc(N)c1", "name": "3-Amino-N,N-dimethylbenzylamine", "mp (°C)": "41"}
{"smiles": "COc1cccc2cc(C=O)oc12", "name": "7-Methoxybenzofuran-2-carbaldehyde", "mp (°C)": "46"}
{"smiles": "CCc1ccc(C)nc1N", "name": "3-Ethyl-6-methylpyridin-2-amine", "mp (°C)": "46.5"}

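These are experimental values that the OPERA curators gathered from public databases to train and test their QSAR models. A listed value is a point estimate from one report or more. Method, purity and exact conditions of the single measurements are not given. Where a salt, mixture or single isomer is drawn, the source does not say that exactly this form was tested. Some entries may be limits or estimates that an upstream database listed as plain numbers.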